Results on 1 compound are retold here after article PMC11506018, “Targeting PARP-1 and DNA Damage Response Defects in Colorectal Cancer Chemotherapy with Established and Novel PARP Inhibitors” (Cancers, 2024).

This assay has as its system HCT116 BRCA2−/− cells. Kind of assay: cell viability, resazurin reduction assay, HCT116 BRCA2-/-. The conditions noted are these: IT 0.25 µM, 5-FU 0.1 µM, OXA 0.25 µM, 72 h. A general note: Alamar Blue is a resazurin reagent that responds to reducing activity.

Regarding `C[C@]1(c2nc3c(C(N)=O)cccc3[nH]2)CCCN1` [Veliparib, veliparib], the “cell viability in combination with chemotherapeutics” value was “increased the sensitivity to IT and OXA in a BRCA2-deficient background”.
